The source of these data is PMC11345818 (Journal of Medicinal Chemistry, 2024).

By UniProt entry, the sequences of proteins in these tests, tags left out.
UniProt P08684, whole entry: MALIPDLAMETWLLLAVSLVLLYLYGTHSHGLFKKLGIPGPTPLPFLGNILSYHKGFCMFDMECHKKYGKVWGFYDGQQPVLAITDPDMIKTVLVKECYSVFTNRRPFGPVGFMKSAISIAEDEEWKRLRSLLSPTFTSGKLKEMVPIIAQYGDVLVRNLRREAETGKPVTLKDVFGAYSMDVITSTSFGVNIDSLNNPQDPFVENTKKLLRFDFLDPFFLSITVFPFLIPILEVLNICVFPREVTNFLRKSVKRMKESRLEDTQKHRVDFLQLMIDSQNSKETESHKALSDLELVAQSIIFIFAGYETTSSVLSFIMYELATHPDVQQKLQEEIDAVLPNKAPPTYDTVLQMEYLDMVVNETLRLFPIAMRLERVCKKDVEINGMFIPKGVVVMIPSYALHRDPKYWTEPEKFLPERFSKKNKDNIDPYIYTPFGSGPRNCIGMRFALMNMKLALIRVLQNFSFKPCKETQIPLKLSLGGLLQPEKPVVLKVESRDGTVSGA
UniProt P08183, whole entry: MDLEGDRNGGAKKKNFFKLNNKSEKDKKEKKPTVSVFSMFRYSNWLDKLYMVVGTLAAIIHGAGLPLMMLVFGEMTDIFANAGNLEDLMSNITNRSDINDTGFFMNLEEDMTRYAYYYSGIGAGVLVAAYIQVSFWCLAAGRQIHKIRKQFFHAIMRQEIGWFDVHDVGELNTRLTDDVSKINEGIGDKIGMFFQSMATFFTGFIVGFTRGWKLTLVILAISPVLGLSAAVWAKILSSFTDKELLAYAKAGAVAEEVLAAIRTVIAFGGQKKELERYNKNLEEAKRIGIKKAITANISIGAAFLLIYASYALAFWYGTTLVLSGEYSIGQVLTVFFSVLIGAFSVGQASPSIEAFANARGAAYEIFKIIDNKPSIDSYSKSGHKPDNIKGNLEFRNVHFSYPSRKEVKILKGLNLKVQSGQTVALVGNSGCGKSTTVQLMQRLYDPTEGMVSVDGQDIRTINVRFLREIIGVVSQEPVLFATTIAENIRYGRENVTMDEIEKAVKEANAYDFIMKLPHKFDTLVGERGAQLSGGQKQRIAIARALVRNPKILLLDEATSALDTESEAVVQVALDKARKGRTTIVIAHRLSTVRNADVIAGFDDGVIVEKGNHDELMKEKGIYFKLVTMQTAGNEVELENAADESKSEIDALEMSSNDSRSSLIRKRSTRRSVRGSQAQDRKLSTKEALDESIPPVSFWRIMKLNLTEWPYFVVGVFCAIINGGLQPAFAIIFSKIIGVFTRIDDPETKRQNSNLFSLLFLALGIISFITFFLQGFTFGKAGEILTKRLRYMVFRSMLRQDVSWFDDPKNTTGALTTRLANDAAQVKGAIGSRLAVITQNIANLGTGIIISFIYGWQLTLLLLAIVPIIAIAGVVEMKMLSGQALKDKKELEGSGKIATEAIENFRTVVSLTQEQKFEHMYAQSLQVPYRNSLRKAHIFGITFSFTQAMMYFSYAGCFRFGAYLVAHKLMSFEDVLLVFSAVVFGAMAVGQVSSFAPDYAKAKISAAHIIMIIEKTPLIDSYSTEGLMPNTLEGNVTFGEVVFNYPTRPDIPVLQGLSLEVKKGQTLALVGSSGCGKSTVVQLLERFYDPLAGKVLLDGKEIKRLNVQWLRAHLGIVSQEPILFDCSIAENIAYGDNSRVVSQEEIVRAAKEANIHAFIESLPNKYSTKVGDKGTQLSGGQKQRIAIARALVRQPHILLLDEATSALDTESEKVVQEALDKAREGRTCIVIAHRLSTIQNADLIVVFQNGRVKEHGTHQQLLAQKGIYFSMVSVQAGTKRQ

Data set [1] can be described thus: in vivo. The following applies: male, Sprague Dawley, rat, brain, iv, 0.2 mg/kg.
Data set [2] can be described thus: in vitro. The settings on record: human, microsomes, pH 7.4.
Data set [3] concerns the target CYP3A4 (Homo sapiens, UniProt P08684).
The nature of data set [4]: in vivo. The following applies: male, Sprague Dawley, rat, po, 10 mg/kg.
Data set [5] is described as follows: in vitro. The settings on record: human, plasma, pH 7.4.
A short description of data set [6]: in vitro. The settings on record: mouse, plasma, pH 7.4.
The nature of data set [7]: in vitro. The following applies: rhesus monkey, plasma, pH 7.4.
Data set [8] is described as follows: in vitro. The settings on record: rat, brain homogenate, pH 7.4.
The nature of data set [9]: in vivo. The following applies: male, Sprague Dawley, rat, iv.
For data set [10] the following is noted: brain:plasma ratio, IV.
The nature of data set [11]: in vitro. The following applies: cynomolgus monkey, plasma, pH 7.4.
The nature of data set [12]: in vitro. The settings on record: rat, plasma, pH 7.4.
Data set [13] in a line: in vitro. The settings on record: dog, plasma, pH 7.4.
For data set [14] the following is noted: male, Sprague Dawley, rat, in vivo, po, 10 mg/kg.
Data set [15] deals with P-gp (Homo sapiens, UniProt P08183). The settings on record: dog, MDCK-MDR1.
For data set [16] the following is noted: microsomes.

Read-outs that look alike come from different tables or passages of the source.

With `Cn1ncc(S(=O)(=O)N2CCC(c3cn4ncnc4cc3Cl)CC2)c1Cl`, in [1], the Kp at […] was determined as 0.34. In data set [2], this compound displayed an intrinsic metabolic clearance (CLint scaled) of 41.7 mL/min/kg.
For the compound `Cc1ncc(S(=O)(=O)N2CCC(c3cn4ncnc4cc3Cl)CC2)s1`, the “Contribution (%)” value in [3] was 96.9%. This compound displayed a bioavailability in data set [4] (in vivo) of 68%. The time to peak (Tmax) at 24 h in data set [4] (plasma) came to 0.75 h. The fraction unbound was 0.2 in data set [5]; 0.16 in data set [6]; 0.13 in data set [7]; 0.16 in data set [8]; 0.13 in data set [11]; 0.2 in [13]. The same compound returned an MRT at 24 h in [9] (in vivo, 1 mg/kg) of 1.8 h. Besides, the Vd at 24 h in data set [9] (plasma, 1 mg/kg) was determined as 1.68 L/kg. Further, the “AUCinf,u” value (Sprague-Dawley, rat, in vivo, po, 10 mg/kg) was 0.882 µM·h. Besides, the “AUCinf,u/Dose” value (Sprague-Dawley, rat, in vivo, po, 100 mg/kg) worked out at 29.4 nM·kg·h/mg; the “AUCinf,u/Dose” value (rat PO 3 mg/kg) was found to be 73.3 nM·kg·h/mg; the “AUCinf,u/Dose” value (rat PO 10 mg/kg) is 88.2 nM·kg·h/mg; the “AUCinf,u/Dose” value (rat PO 30 mg/kg) worked out at 59.9 nM·kg·h/mg. Moreover, the “Cmax,u” value (rat PO 100 mg/kg) is 305 nM. Also, in data set [10], the “Kp (rat)” value worked out at 0.75. For the same compound, the fraction unbound at 6 h, 5 µM in data set [12] was 0.09. Besides, the “Brain Unbound” value in data set [14] turned out to be 17.4 nM. The “Plasma Unbound” value in data set [14] was 26.9 nM. The “P-gp ER” value in [15] was found to be 1.49.
For the compound `O=S(=O)(c1cnc(CO)s1)N1CCC(c2cn3ncnc3cc2Cl)CC1`, the fraction unbound at 6 h, 5 µM turned out to be 0.17 in [5], 0.16 in [8] and 0.12 in data set [12]. Further, in [9] (in vivo), the total exposure AUC(0-inf) came to 276 ng·h/mL. The compound further gave a mean residence time (MRT) at 24 h in data set [9] (in vivo, 1 mg/kg) of 1.49 h. In [9] (plasma, 0.2 mg/kg), the clearance stood at 12 mL/min/kg. The compound further yielded a distribution volume (Vd) at 24 h in data set [9] (plasma, 1 mg/kg) of 1.1 L/kg. The half-life at 24 h in data set [9] (plasma, 1 mg/kg) is 1.47 h. Besides, the “Predicted rat CLhep” value in [16] is 16 mL/min/kg.
Consider `Cc1ncc(S(=O)(=O)N2CCC(c3cn4ncnc4cc3Cl)CC2)o1`, for which the mean residence time (MRT) at 24 h in data set [9] (in vivo, 1 mg/kg) turned out to be 1.3 h. The compound further came in with a distribution volume (Vd) at 24 h in data set [9] (plasma, 1 mg/kg) of 2.37 L/kg.
`[2H]C1([2H])CC(c2cn3ncnc3cc2Cl)CC([2H])([2H])N1S(=O)(=O)c1cnc(C)o1` had a Vd in [9] (in vivo) of 1.3 L/kg.

A word on the CLint scaled: it is a measure of how fast metabolising enzymes remove a compound, apart from limits set by blood flow. Read a low CLint scaled as slow turnover. Broadly, the bioavailability is dose-corrected exposure relative to a reference, in per cent. Read a low bioavailability as little systemic uptake. As usually defined, the Tmax is the time at which the peak concentration occurs. The term fraction unbound denotes free concentration divided by total concentration. Low readings indicate extensive binding, high ones weak binding. As a reminder, the MRT is the average time that molecules of a dose stay in the body. As usually defined, the Vd is a proportionality between amount in the body and measured concentration, not a real space. Read a low Vd as confinement near the circulation. One may read the AUC(0-inf) as total exposure, with the tail of the curve extrapolated. Low readings indicate less exposure, high ones more exposure. The term clearance denotes the volume of plasma or blood freed of the substance per unit of time. As usually defined, the half-life is the time in which the quantity being followed falls by half. Low readings indicate rapid decline, high ones slow decline.
